In patent US8242152B2, “Use of 4-[(4-thiazolyl)phenoxy]alkoxy-benzamidine derivatives for the prophylaxis and treatment of osteoporosis” (Dong Wha Pharmaceutical Co., Ltd., priority 2001, dated 2012):

Tested on: ovariectomized ddY mice
Test: Prophylactic effects in ovariectomized ddY mouse model (estrogen-deficient osteoporosis)
Type: in vivo
Details: right femur; 10 mg/kg oral once a day for 6 weeks (F10, D10)
Description: The effects of a drug would be based on histomorphometric changes of trabecular bone and thickness cortical bone in this model.
The objective of present study is to observe the prophylactic effect of DW1350MSA, and administration of drug was initiated 3 days after ovariectomy for prophylaxis study. The results were compared to that of Fosamax, well-documented anti-osteoporotic agents.
Twenty-five female ddY mice (6-wk old upon receipt, SLC, Japan) were used after acclimatization for 7 days. Animals were allocated 5 per polycarbonate cage in a temperature (20-25° C.) and humidity (30-35%) controlled room. Light:dark cycle was 12 hr:12 hr and feed (Samyang, Korea) and water were supplied free to access. […]
Histomorphometric changes of tibia and femur were evaluated. All histomorphometric indices including trabecular bone volume (TBV, %), thickness of trabecular bone (Tbt), trabecular bone number (Tbn), and length of trabeculer bone (Tbl) were calculated using automated image analysis (analysis Image Processing; SIS, Germany) under magnification 200 (×200) of microscopy (Zeiss, Germany) in the epiphyseal regions of right tibia and/or femur. In addition, cortical bone thickness (Cbt) was measured in mid-shaft region of right tibia and femur. […] Tbt and Tbl were calculated as um levels, and Tbn were calculated as number/whole sectional part of epiphyseal regions levels. • C. […]

## NCCCC(O)(P(=O)(O)O)P(=O)(O)O [Fosamax, Alendronate]
  Ocn, osteoclast cell number: 9.40 ± 1.14 number
